Test results taken from patent publication US7829303B1 (ELAN PHARMACEUTICALS, dated 2010).

Sequences of proteins named here, by UniProt entry; tags and fusion partners are left off. Residues count along the entry.
UniProt P56817, 46-501 limits assumed: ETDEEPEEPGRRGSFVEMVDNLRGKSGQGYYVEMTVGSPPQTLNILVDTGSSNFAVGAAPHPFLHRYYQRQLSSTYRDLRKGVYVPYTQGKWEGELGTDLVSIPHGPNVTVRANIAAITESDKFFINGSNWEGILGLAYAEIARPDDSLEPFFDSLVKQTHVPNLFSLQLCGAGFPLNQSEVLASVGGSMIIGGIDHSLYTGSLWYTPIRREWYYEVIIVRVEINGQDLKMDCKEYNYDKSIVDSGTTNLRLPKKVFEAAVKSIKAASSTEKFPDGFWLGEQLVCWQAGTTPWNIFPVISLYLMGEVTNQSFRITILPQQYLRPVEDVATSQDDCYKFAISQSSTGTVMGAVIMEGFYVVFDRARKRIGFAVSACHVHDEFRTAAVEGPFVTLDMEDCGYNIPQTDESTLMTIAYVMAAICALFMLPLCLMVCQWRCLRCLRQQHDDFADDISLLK

Target: BACE (Homo sapiens, UniProt P56817)
Experiment: Inhibition of BACE (IC50 quoted for the inhibitors used in crystal soaking experiments)
Details: BACE inhibitor potency stated in text; assay method not described

IC50: 8.8 µM
SMILES: COc1cccc(CNC[C@@H](O)[C@H](Cc2ccccc2)NC(=O)c2cc(C)cc(-c3ccsc3)c2)c1
